The values that follow are results of earlier work, collected in PMC9698716, “From Serendipity to Rational Identification of the 5,6,7,8-Tetrahydrobenzo[4,5]thieno[2,3-d]pyrimidin-4(3H)-one Core as a New Chemotype of AKT1 Inhibitors for Acute Myeloid Leukemia” (Pharmaceutics, 2022).

This data set relates to AKT2. Also on record: method as in PMID 33995085. The note with it: ref [51]; cited from earlier work.

For the molecule `CC(C)NC[C@@H](C(=O)N1CCN(c2ncnc3c2[C@H](C)C[C@H]3O)CC1)c1ccc(Cl)cc1` [ipatasertib], the IC50 (commonly the midpoint of a concentration-inhibition curve) is 18 nM.
